This is an account of results in patent US10442819B2, “Tricyclic compounds as inhibitors of mutant IDH enzymes” (Merck Sharp & Dohme Corp., priority 2014, dated 2019).

Chains of the proteins cited; added tags and fusions are not shown.
UniProt O75874, whole entry R132H: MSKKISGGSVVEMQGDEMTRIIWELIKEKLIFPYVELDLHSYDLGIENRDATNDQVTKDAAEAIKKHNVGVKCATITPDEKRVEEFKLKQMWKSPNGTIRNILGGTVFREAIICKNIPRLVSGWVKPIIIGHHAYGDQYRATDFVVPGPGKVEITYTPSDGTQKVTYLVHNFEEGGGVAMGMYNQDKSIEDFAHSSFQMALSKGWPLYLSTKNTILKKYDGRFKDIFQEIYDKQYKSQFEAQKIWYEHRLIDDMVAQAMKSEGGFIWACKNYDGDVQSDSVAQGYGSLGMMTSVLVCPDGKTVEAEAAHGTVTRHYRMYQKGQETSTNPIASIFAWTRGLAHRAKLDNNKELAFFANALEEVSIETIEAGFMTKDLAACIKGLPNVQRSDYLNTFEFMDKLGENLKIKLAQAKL

For the experiment, the target named is R132H mutant IDH1 enzyme (Homo sapiens (Human), UniProt O75874, R132H). The experiment in a line: R132H IDH1 Enzymatic Assay. Type of experiment: biochemical. To be noted: R132H mutant IDH1 enzyme 1.5 nM final.
Setting [1] is: luminescence readout, read-out: IC50.

Where two headings read alike, the source gives them in different places.

By IC50 is commonly meant the concentration needed to halve the response being measured. Turning to `CO[C@H]1CC[C@H](C(=O)N2Cc3cccnc3Nc3ccc(-c4csc(C)n4)cc32)CC1` [Example 368, 6-[(trans-4-methoxycyclohexyl)carbonyl]-8-(2-methyl-1,3-thiazol-4-yl)-6,11-dihydro-5H-pyrido[2,3-b][1,5]benzodiazepine], the IC50 under setting [1] amounted to 276 nM.

Consider `CO[C@H]1CC[C@H](C(=O)N2Cc3cccnc3Nc3ccc(N4CC[C@H]5[C@@H](C4)N(C)C(=O)N5C)cc32)CC1` [Example 249, (3aR,7aS)-5-{6-[(trans-4-methoxycyclohexyl)carbonyl]-6,11-dihydro-5H-pyrido[2,3-b][1,5]benzodiazepin-8-yl}-1,3-dimethyloctahydro-2H-imidazo[4,5-c]pyridin-2-one], for which the IC50 under setting [1] turned out to be 69 nM.

Regarding `CC(C)O[C@@H]1CO[C@](C)(c2ccc3c(c2)N(C(=O)[C@H]2CC[C@H](OC(C)C)CO2)Cc2cccnc2N3)C1` (single isomer, unassigned) [Example 148], the IC50 under setting [1] turned out to be 19 nM.

As to `CO[C@H]1CC[C@H](C(=O)N2Cc3cccnc3Nc3ccc(N4CCCC4)cc32)CC1` [Example 227, 6-[(trans-4-methoxycyclohexyl)carbonyl]-8-pyrrolidin-1-yl-6,11-dihydro-5H-pyrido[2,3-b][1,5]benzodiazepine], under setting [1], the IC50 was determined as 613 nM.

Regarding `CO[C@H]1CC[C@H](C(=O)N2Cc3cccnc3Nc3ccc(-c4cnc5c(c4)ncn5C)cc32)CC1` [Example 403, 6-[(trans-4-methoxycyclohexyl)carbonyl]-8-(3-methyl-3H-imidazo[4,5-b]pyridin-6-yl)-6,11-dihydro-5H-pyrido[2,3-b][1,5]benzodiazepine], the IC50 under setting [1] turned out to be 53 nM.

For the compound `CO[C@H]1CN(c2ccc3c(c2)N(C(=O)[C@H]2CC[C@H](OC)CC2)Cc2cccnc2N3)CC[C@H]1F` (single isomer, unassigned) [Example 217], under setting [1], the half-inhibitory concentration (IC50) is 318 nM.

`COC1CCC(C(=O)N2Cc3cccnc3Nc3ccc(C[C@H]4CCOC4)cc32)CC1` (single isomer, unassigned) [Example 426]: the IC50 under setting [1] was 59 nM.

On to `COC1(C)CCN(c2ccc3c(c2)N(C(=O)[C@H]2CC[C@H](OC(C)C)CC2)Cc2cccnc2N3)CC1` [Example 208, 8-(4-methoxy-4-methylpiperidin-1-yl)-6-{[trans-4-(1-methylethoxy)cyclohexyl]car-bonyl}-6,11-dihydro-5H-pyrido[2,3-b][1,5]benzodiazepine], for which the IC50 under setting [1] came out at 103 nM.

For `COCCN(C)c1ccc2c(c1)N(C(=O)[C@H]1CC[C@H](OC)CC1)Cc1cccnc1N2` [Example 236, 6-[(trans-4-methoxycyclohexyl)carbonyl]-N-(2-methoxyethyl)-N-methyl-6,11-dihydro-5H-pyrido[2,3-b][1,5]benzodiazepin-8-amine], the IC50 under setting [1] came to 195 nM.

In the case of `CCO[C@H]1CC[C@H](C(=O)N2Cc3cccnc3Nc3ccc(N4CC5COCC(C4)O5)cc32)CC1(F)F` (single isomer, unassigned) [Example 336], the IC50 under setting [1] was 18 nM.

Turning to `CO[C@H]1CC[C@H](C(=O)N2Cc3cccnc3Nc3ccc(S(C)(=O)=O)cc32)CC1` [Example 430, (Trans-4-methoxycyclohexyl)[8-(methylsulfonyl)-5,11-dihydro-6H-pyrido[2,3-b][1,5]benzodiazepin-6-yl]methanone], under setting [1], the IC50 was found to be 889 nM.

As to `O=C(C1CCN(CC(F)(F)C(F)F)CC1)N1Cc2cccnc2Nc2ccc(N3C[C@@H]4C[C@H]3CO4)cc21` [Example 342, 8-[(1S,4S)-2-oxa-5-azabicyclo[2.2.1]hept-5-yl]-6-{[1-(2,2,3,3-tetrafluoropropyl)piperidin-4-yl]carbonyl}-6,11-dihydro-5H-pyrido[2,3-b][1,5]benzodiazepine], the IC50 under setting [1] was 26 nM.

Consider `O=C(C1CCN(CC(F)(F)F)CCO1)N1Cc2cccnc2Nc2ccc(N3CCOCC3)cc21` (centres unmarked) [Example 556, (8-Morpholino-5,11-dihydro-6H-benzo[b]pyrido[2,3-e][1,4]diazepin-6-yl)(4-(2,2,2-trifluoroethyl)-1,4-oxazepan-7-yl)methanone], for which the concentration for half-maximal inhibition (IC50) under setting [1] amounted to 390 nM.

Take `COC1CCC(C(=O)N2Cc3cccnc3Nc3ccc(N4C(=O)OCC4C)cc32)CC1` (centres unmarked) [Example 490, 3-{6-[(4-methoxycyclohexyl)carbonyl]-6,11-dihydro-5H-pyrido[2,3-b][1,5]benzodiazepin-8-yl}-4-methyl-1,3-oxazolidin-2-one]: the IC50 under setting [1] was determined as 529 nM.

Regarding `COC1CCC(C(=O)N2Cc3cccnc3Nc3ccc(N4CCCC(OC)C4)cc32)CC1` (centres unmarked) [Example 202, 6-[(4-methoxycyclohexyl)carbonyl]-8-(3-methoxypiperidin-1-yl)-6,11-dihydro-5H-pyrido[2,3-b][1,5]benzodiazepine], the IC50 under setting [1] is 564 nM.

Regarding `CCS(=O)(=O)c1ccc2c(c1)N(C(=O)[C@H]1CC[C@H](OC)CC1)Cc1cccnc1N2` [Example 431, 8-(ethylsulfonyl)-6-[(trans-4-methoxycyclohexyl)carbonyl]-6,11-dihydro-5H-pyrido[2,3-b][1,5]benzodiazepine], under setting [1], the IC50 worked out at 594 nM.

On to `O=C([C@H]1CC[C@H](NC2(C(F)(F)F)CCC2)CC1)N1Cc2cccnc2Nc2ccc(N3CCOCC3)cc21` [Example 469, trans-4-[(8-morpholin-4-yl-5,11-dihydro-6H-pyrido[2,3-b][1,5]benzodiazepin-6-yl)carbonyl]-N-[1-(trifluoromethyl)cyclobutyl]-cyclohexanamine], for which the IC50 under setting [1] amounted to 40 nM.

With `CC(C)(C)[C@H]1CC[C@@H](C(=O)N2Cc3cccnc3Nc3ccccc32)CC1` [Example 61, 6-[(cis-4-tert-butylcyclohexyl)carbon-yl]-6,11-dihydro-5H-pyrido[2,3-b][1,5]benzodiazepine], the IC50 under setting [1] stood at 595 nM.

Take `CC(N1CCC(C(=O)N2Cc3cccnc3Nc3ccc(N4CCOCC4)cc32)CC1)C(F)(F)F` (centres unmarked) [Example 151, 8-morpholin-4-yl-6-{[1-(2,2,2-trifluoro-1-methylethyl)piperidin-4-yl]carbonyl}-6,11-dihydro-5H-pyrido[2,3-b][1,5]benzodiazepine]: the IC50 under setting [1] worked out at 36 nM.

For `CC(C)OCc1ccc2c(c1)N(C(=O)[C@H]1CC[C@H](OC(C)C)CO1)Cc1cccnc1N2` [Example 17, (8-(isopropoxymethyl)-5,11-dihydro-6H-benzo[b]pyrido[2,3-e][1,4]diazepin-6-yl)((2R,5S)-5-isopropoxytetrahydro-2H-pyran-2-yl)methanone], the IC50 under setting [1] came to 52 nM.

In the case of `CCO[C@H]1CC[C@@H](C(=O)N2Cc3cccnc3Nc3ccc(N4CC5COCC(C4)O5)cc32)CC1(F)F` (single isomer, unassigned) [Example 337], the IC50 under setting [1] is 14 nM.

For `O=C(C1CC=CCC1)N1Cc2cccnc2Nc2ccc(N3CCOCC3)cc21` (centres unmarked) [Example 522, Cyclohex-3-en-1-yl[8-(morpholin-4-yl)-5,11-dihydro-6H-pyrido[2,3-b][1,5]benzodiazepin-6-yl]methanone], the IC50 under setting [1] turned out to be 669 nM.

For `O=C([C@H]1CC[C@H](OC2CCC2)CC1)N1Cc2cccnc2Nc2ccc(N3CCOCC3)cc21` [Example 95, 6-{[trans-4-(cyclobutyloxy)cyclohex-yl]carbonyl}-8-morpholin-4-yl-6,11-dihydro-5H-pyrido[2,3-b][1,5]benzodiazepine], the IC50 under setting [1] is 78 nM.

Regarding `CC1(C)CC(C(=O)N2Cc3cccnc3Nc3ccc(N4CCC45CN(C(=O)OC(C)(C)C)C5)cc32)C1` [tert-butyl 1-{6-[(3,3-dimethylcyclobutyl)carbonyl]-6,11-dihydro-5H-pyrido[2,3-b][1,5]benzodiazepin-8-yl}-1,6-diazaspiro[3.3]heptane-6-carboxylate], where the note is “Kinase-GLO luminescence, 10-point, 3-fold dilution series, read-out: IDH1 R132H IC50”, the IC50 was found to be 485 nM.

Consider `CC1CC(F)(F)CCC1C(=O)N1Cc2cccnc2Nc2ccc(N3CCC(F)(F)CC3)cc21` (centres unmarked) [Example 196, 6-[(4,4-difluoro-2-methylcyclohexyl)carbonyl]-8-(4,4-difluoropiperidin-1-yl)-6,11-dihydro-5H-pyrido[2,3-b][1,5]benzodiazepine], for which the IC50 under setting [1] was found to be 614 nM.

Consider `O=C(C1CCC(C(F)(F)F)CC1)N1Cc2cccnc2Nc2ccc(Br)cc21` (centres unmarked) [Example 75, 8-bromo-6-{[4-(trifluoromethyl)cyclohex-yl]carbonyl}-6,11-dihydro-5H-pyrido[2,3-b][1,5]benzodiazepine], for which the IC50 under setting [1] stood at 83 nM.

As for `CC(C)ON=C1CCC(C(=O)N2Cc3cccnc3Nc3ccc(N4CCOCC4)cc32)CC1` (centres unmarked) [Example 551, 4-[(8-morpholin-4-yl-5,11-dihydro-6H-pyrido[2,3-b][1,5]benzodiazepin-6-yl)carbonyl]cyclohexanone O-(1-methylethyl)oxime], the IC50 under setting [1] is 137 nM.

Turning to `CC(C)O[C@H]1CC[C@H](C(=O)N2Cc3cccnc3Nc3ccc(N4CC5CCC4CO5)cc32)CC1` (single isomer, unassigned) [Example 191, 6-{[Trans-4-(1-methylethoxy)cyclohexyl]carbonyl}-8-(2-oxa-5-azabicyclo[2.2.2]oct-5-yl)-6,11-dihydro-5H-pyrido[2,3-b][1,5]benzodiazepine], under setting [1], the IC50 is 39 nM.

On to `CC[C@@H](N[C@H]1CC[C@@H](C(=O)N2Cc3cccnc3Nc3ccc(N4CCOCC4)cc32)CC1)C(F)(F)F` [Example 452, cis-4-[(8-morpholin-4-yl-5,11-dihydro-6H-pyrido[2,3-b][1,5]benzodiazepin-6-yl)carbonyl]-N-[(1R)-1-(trifluoromethyl)propyl]-cyclohexanamine], for which, under setting [1], the IC50 amounted to 139 nM.

On to `CC(C)(C)O[C@H]1CC[C@H](C(=O)N2Cc3cccnc3Nc3ccc(N4CCOCC4)cc32)CC1` [Example 111, 6-[(trans-4-tert-butoxycyclohexyl)carbon-yl]-8-morpholin-4-yl-6,11-dihydro-5H-pyrido[2,3-b][1,5]benzodiazepine], for which the IC50 under setting [1] is 34 nM.

Take `CC(N1CCC(C(=O)N2Cc3cccnc3Nc3ccc(N4CCOCC4)cc32)CC1)C(F)(F)F` (centres unmarked) [Example 154, 8-morpholin-4-yl-6-{[1-(2,2,2-trifluoro-1-methylethyl)piperidin-4-yl]carbonyl}-6,11-dihydro-5H-pyrido[2,3-b][1,5]benzodiazepine]: the IC50 under setting [1] was 56 nM.

Turning to `CON=C1CCC(C(=O)N2Cc3cccnc3Nc3ccc(C4CCOCC4)cc32)CC1` (centres unmarked) [Example 394, 4-{[8-(tetrahdyro-2H-pyran-4-yl)-5,11-dihydro-6H-pyrido[2,3-b][1,5]benzodiazepin-6-yl]carbonyl}cyclohexanone O-methyloxime], under setting [1], the IC50 worked out at 30 nM.
